{
  "sequences": {"note": "Sequences of proteins named here, by UniProt entry; tags and fusion partners are left off.", "UniProt Q6RI86, whole entry, looked up": "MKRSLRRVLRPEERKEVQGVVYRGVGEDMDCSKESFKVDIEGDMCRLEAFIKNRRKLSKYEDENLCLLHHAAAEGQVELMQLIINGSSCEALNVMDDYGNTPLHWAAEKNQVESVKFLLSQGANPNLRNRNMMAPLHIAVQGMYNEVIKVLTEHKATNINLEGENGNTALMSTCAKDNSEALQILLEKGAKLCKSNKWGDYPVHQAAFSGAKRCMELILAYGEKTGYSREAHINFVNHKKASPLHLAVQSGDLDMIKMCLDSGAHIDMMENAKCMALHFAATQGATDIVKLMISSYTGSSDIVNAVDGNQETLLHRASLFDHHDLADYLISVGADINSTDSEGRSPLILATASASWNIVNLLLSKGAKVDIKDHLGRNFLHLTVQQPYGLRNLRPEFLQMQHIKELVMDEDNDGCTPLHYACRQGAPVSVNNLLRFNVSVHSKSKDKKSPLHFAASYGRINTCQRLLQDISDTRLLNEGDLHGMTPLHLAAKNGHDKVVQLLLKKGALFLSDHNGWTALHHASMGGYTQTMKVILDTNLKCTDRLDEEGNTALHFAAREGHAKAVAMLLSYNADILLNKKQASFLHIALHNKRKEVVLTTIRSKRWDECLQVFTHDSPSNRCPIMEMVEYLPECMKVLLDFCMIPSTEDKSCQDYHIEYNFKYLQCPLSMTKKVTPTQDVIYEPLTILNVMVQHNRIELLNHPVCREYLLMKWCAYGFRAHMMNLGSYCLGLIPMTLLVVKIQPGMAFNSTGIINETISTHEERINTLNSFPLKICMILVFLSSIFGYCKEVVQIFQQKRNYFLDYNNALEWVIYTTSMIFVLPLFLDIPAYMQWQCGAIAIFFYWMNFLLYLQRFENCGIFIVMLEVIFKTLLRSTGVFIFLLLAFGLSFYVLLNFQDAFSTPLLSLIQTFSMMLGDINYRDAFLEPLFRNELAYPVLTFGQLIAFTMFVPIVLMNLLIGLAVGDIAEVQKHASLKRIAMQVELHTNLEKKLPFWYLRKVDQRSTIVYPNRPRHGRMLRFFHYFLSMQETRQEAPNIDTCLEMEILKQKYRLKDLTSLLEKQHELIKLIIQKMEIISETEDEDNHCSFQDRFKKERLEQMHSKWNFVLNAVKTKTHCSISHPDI", "UniProt O75762, whole entry, looked up": "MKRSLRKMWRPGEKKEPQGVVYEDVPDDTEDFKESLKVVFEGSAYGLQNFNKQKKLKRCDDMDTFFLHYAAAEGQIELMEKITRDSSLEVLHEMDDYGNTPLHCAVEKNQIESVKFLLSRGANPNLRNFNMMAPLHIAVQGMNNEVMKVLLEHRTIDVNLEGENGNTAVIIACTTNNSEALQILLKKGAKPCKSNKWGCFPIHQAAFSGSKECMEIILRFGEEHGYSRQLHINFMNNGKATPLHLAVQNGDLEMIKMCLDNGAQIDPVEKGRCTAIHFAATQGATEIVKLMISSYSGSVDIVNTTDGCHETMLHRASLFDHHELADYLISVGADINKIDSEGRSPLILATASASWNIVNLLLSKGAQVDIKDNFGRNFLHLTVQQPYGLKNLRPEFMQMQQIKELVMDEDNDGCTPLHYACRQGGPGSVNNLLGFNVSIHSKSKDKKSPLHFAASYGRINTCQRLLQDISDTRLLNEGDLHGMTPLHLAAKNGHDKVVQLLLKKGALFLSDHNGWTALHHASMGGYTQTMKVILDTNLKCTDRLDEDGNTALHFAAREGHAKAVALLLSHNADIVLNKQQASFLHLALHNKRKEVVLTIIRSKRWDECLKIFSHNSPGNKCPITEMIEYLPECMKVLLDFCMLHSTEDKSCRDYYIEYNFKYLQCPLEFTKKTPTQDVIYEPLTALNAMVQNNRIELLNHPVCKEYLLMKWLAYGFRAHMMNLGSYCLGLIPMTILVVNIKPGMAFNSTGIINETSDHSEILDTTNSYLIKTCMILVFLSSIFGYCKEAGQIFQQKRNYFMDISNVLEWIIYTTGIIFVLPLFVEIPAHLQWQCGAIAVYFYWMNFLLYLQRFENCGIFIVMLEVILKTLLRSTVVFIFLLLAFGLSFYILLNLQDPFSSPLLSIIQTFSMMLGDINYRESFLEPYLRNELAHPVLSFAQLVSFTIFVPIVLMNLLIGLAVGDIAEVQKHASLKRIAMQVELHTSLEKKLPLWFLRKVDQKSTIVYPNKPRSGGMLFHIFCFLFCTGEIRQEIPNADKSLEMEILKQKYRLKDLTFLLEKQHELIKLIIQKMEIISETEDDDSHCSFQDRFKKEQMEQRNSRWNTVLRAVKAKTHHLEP", "UniProt Q8BLA8, whole entry, looked up": "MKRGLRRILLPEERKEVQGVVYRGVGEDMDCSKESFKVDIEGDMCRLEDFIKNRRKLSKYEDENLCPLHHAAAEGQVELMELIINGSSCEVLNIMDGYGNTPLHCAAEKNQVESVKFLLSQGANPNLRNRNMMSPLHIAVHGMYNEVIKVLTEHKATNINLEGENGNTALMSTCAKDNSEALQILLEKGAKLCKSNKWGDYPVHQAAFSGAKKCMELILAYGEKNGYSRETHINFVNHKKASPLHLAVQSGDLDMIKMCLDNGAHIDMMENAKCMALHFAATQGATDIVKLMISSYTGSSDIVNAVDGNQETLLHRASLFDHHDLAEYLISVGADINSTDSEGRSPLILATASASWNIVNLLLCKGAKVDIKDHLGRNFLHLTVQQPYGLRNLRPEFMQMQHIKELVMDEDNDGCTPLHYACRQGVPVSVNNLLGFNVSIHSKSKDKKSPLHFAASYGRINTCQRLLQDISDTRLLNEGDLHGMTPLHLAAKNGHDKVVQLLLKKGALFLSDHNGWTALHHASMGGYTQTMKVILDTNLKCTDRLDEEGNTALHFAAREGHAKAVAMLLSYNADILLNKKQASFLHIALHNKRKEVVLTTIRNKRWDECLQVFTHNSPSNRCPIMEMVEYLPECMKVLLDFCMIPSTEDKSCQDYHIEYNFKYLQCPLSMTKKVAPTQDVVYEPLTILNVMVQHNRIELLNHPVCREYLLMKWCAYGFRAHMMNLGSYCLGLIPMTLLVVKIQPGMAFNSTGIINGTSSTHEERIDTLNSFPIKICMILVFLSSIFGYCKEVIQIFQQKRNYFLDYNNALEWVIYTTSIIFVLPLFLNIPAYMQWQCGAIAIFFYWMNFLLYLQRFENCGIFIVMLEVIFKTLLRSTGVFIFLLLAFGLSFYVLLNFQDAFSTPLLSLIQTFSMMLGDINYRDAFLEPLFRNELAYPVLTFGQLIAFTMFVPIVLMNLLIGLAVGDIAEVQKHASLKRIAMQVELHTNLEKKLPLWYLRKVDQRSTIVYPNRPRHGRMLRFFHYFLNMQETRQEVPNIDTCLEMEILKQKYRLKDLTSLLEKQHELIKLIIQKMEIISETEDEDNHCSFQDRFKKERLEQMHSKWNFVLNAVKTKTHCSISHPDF"},
  "source": "ChEMBL document CHEMBL5705895",
  "about": "“Species comparison and pharmacological characterization of human, monkey, rat, and mouse TRPA1 channels” (J Pharmacol Exp Ther, 2012)",
  "assay_type_in_all_cases": "cell-based",
  "key": {"[1]": {"molecular_target": "Transient receptor potential cation channel subfamily A member 1 (Rattus norvegicus) (UniProt Q6RI86)", "assay": "Agonist activity at full length rat TRPA1 transfected in HEK293F cells assessed as increase in Ca2+ influx by FLIPR calcium assay relative to MO", "conditions": "filed as agonist"}, "[2]": {"molecular_target": "Transient receptor potential cation channel subfamily A member 1 (Homo sapiens, UniProt O75762)", "assay": "Antagonist activity at full length human TRPA1 transfected in HEK293F cells assessed as increase in Ca2+ influx by FLIPR calcium assay", "conditions": "filed as antagonist"}, "[3]": {"molecular_target": "Transient receptor potential cation channel subfamily A member 1 (Macaca mulatta) (UniProt A0A1D5QMT1)", "assay": "Antagonist activity at rhesus monkey TRPA1 transfected in HEK293F cells assessed as increase in Ca2+ influx by FLIPR calcium assay", "conditions": "filed as antagonist"}, "[4]": {"molecular_target": "Transient receptor potential cation channel subfamily A member 1 (Mus musculus) (UniProt Q8BLA8)", "assay": "Agonist activity at full length mouse TRPA1 transfected in HEK293F cells assessed as increase in Ca2+ influx by FLIPR calcium assay relative to control", "conditions": "filed as agonist"}, "[5]": {"molecular_target": "Transient receptor potential cation channel subfamily A member 1 (Rattus norvegicus) (UniProt Q6RI86)", "assay": "Agonist activity at full length rat TRPA1 transfected in HEK293F cells assessed as blockade of MO-induced TRPA1 channel activation by measuring Ca2+ influx in presence of 30 uM MO by FLIPR calcium assay", "conditions": "filed as agonist"}, "[6]": {"molecular_target": "Transient receptor potential cation channel subfamily A member 1 (Mus musculus) (UniProt Q8BLA8)", "assay": "Agonist activity at full length mouse TRPA1 transfected in HEK293F cells assessed as blockade of MO-induced TRPA1 channel activation by measuring Ca2+ influx in presence of 30 uM MO by FLIPR calcium assay", "conditions": "filed as agonist"}},
  "note": "The source made the active and inactive calls. The calls are words filed in the database; no cut-off is given here.",
  "data": [
    {"smiles": "Cc1ccc(C(=O)NC(Sc2ccc([N+](=O)[O-])cc2)C(Cl)(Cl)Cl)cc1", "note": "(stereo unspecified)", "values": [
      {"measurement": "Emax", "setting": "[1]", "result": 77, "unit": "%"},
      {"measurement": "Activity", "setting": "[2]", "result": "Active"},
      {"measurement": "Activity", "setting": "[3]", "result": "Active"},
      {"measurement": "Emax", "setting": "[4]", "result": 77, "unit": "%"},
      {"measurement": "Activity", "setting": "[5]", "result": "Active"},
      {"measurement": "Activity", "setting": "[6]", "result": "Active"}
    ]}
  ]
}
